# Apparent affinities of Ab-95 variants for a coronavirus HR2 peptide

Data: MIT Lincoln Laboratory AlphaSeq set, Engelhart et al. 2022, doi:10.1038/s41597-022-01779-4, as distributed in FLAb.

Antigen: PDVDLGDISGINAS, a 14-residue peptide of the SARS-CoV-2 spike HR2 region.

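Phage display of a naive human antibody library on the peptide gave the parent. The library (AAYL52) carries one to three amino acid substitutions per variant, with no insertions or deletions. In AlphaSeq, yeast of one mating type display the scFv and yeast of the other type display the target. Pairs that bind mate more often; barcode pairs of the diploids are counted by sequencing. The ratio of observed to expected reads was calibrated, replicate by replicate, on BCL2-family standards whose Kd was known from biolayer interferometry. There are three technical replicates.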

Ab-95 is the parent antibody, in scFv form: VH, then a (GGGGS)3 linker, then VL. The heavy chain is unchanged in all variants.
VH: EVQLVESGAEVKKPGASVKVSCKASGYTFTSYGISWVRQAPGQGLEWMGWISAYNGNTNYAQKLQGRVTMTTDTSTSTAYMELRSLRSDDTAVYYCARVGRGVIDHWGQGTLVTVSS
VL: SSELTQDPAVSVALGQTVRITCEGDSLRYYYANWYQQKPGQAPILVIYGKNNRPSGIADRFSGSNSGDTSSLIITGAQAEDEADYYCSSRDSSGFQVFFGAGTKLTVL

Substitutions are numbered in sequence along the VL above, starting at 1 (not Kabat).
All variants listed here change G49 of the VL, counted from its first residue.
Kd is apparent (estimated from mating counts) and averaged on the log scale over replicates with a signal. Smaller is tighter.
"nd" marks a missing value. The strain was present, yet no cells mated with the target were sequenced in any replicate, which points to weak or no binding.
As a blank, each scFv also met three strains without target: over library AAYL52, 28% of these pairings were detected, typically at 8.2 µM and seldom below 800 nM.
For reference, the parent read 200 nM as the reference entry and 180 nM as a member of this library.

Variant Y30P+G49A+S55D showed 80 nM (3 of 3 replicates). Variant S26V+N33K+G49S showed 13 µM (1 of 3 replicates). Variant R28N+G49W+K50F showed 3.9 µM (2 of 3 replicates). Variant G49A+G94A gave 2.2 µM (3 of 3 replicates). Variant G49M+R90L+F95Y showed 15 µM (2 of 3 replicates). Variant G24K+G49A+P54M showed 67 µM (2 of 3 replicates).

For A32L+G49N, the assay gave nd (0 of 3 replicates). For G49E+S92Q+S93P, the assay gave 1.2 µM (2 of 3 replicates). For G49K+S92N+F95R, the assay gave 45 µM (2 of 3 replicates). With Y30H+G49N+S55Y the result was 16 nM (3 of 3 replicates). Variant Y31R+G49K+D91M gave 7.1 µM (2 of 3 replicates). Variant G49S+S55H showed 3.8 µM (3 of 3 replicates).

With L27E+G49D+S88I the result was 23 µM (2 of 3 replicates). Variant L27T+G49S+R90A gave nd (0 of 3 replicates). Variant D25S+R28N+G49F gave nd (0 of 3 replicates). For D25A+Y31P+G49Y, the assay gave 9.1 µM (2 of 3 replicates). Variant A32W+G49T+R53E gave 450 nM (1 of 3 replicates). Variant Y30Q+G49C showed 1.9 µM (2 of 3 replicates).

With Y30C+G49M+S88W the result was 8.6 µM (2 of 3 replicates). Variant G49H+R90L+S92Y gave 1.4 µM (1 of 3 replicates). With D25S+Y30P+G49H the result was 2.2 µM (3 of 3 replicates). With Y30A+G49N+N51D the result was 33 nM (3 of 3 replicates). Variant E23C+G49W+S93K showed 36 µM (2 of 3 replicates). Variant Y31F+G49T+Q96P gave nd (0 of 3 replicates).

For Y31K+G49E+N52P, the assay gave nd (0 of 3 replicates). Variant G24K+G49H+N52C gave 8.8 µM (3 of 3 replicates). For G49D, the assay gave 1.1 µM (3 of 3 replicates). Variant D25C+N33A+G49E showed 62 µM (1 of 3 replicates). With G49M+S88M the result was 5.4 µM (3 of 3 replicates). For D25T+A32F+G49I, the assay gave nd (0 of 3 replicates).

For G49I+K50H+F98R, the assay gave 30 µM (3 of 3 replicates). Variant G49C+S89K+F95C gave 420 µM (1 of 3 replicates). With G49E+Q96F+F98K the result was 5.2 µM (3 of 3 replicates). Variant G49A+K50D+R53A gave nd (0 of 3 replicates). For G49W+N52P+G94R, the assay gave 8.5 µM (2 of 3 replicates).

Again, the first 5 entries without any signal:

| changes | apparent Kd | detected |
|---|---|---|
| A32L+G49N | nd | 0/3 |
| L27T+G49S+R90A | nd | 0/3 |
| D25S+R28N+G49F | nd | 0/3 |
| Y31F+G49T+Q96P | nd | 0/3 |
| Y31K+G49E+N52P | nd | 0/3 |